According to PubChem BioAssay AID652197 (Broad Institute, 2013):
The entries are a selection whose mix differs from that of the whole data set. Some results for these compounds are left out of this collection, so the calls shown say nothing about other tests. Activity calls are given as the source filed them.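 How the source made its calls: active means mean replicate inhibition of at least 30%, or all replicates individually reaching that 30% level; inactive means mean below 30% and not every replicate reaching it.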

By UniProt entry, the sequences of proteins in these tests, tags left out.
UniProt Q9NZ08, whole entry: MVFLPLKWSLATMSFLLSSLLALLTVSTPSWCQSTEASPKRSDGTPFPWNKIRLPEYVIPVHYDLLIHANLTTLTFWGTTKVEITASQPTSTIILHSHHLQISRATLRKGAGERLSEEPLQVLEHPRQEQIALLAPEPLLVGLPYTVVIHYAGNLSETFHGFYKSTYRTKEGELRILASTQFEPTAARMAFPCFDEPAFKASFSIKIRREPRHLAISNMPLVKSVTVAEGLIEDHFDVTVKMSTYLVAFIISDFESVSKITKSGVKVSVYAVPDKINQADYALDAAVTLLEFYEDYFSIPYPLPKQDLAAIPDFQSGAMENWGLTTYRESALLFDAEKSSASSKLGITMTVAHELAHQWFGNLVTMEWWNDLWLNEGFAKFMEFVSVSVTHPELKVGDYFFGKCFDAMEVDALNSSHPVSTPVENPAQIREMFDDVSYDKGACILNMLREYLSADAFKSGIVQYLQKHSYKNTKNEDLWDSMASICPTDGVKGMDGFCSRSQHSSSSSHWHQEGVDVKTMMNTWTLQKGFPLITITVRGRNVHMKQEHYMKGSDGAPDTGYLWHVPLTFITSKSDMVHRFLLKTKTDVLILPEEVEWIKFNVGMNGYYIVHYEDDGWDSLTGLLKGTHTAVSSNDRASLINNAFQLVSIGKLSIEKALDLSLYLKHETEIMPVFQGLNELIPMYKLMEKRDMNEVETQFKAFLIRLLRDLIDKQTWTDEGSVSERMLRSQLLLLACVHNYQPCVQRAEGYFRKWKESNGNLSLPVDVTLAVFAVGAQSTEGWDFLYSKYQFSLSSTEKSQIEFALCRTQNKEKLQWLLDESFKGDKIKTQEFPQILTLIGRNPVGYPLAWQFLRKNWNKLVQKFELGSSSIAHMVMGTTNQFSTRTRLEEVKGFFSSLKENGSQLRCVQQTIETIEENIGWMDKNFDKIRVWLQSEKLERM

The molecules below were run against Endoplasmic reticulum aminopeptidase 1 (Homo sapiens) (UniProt Q9NZ08) (assay: human ERAP1 aminopeptidase inhibitors, primary screen, biochemical, single point, plate reader (AID 652197;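 further: 0% = neutral control wells and 100% = L-leucinethiol positive control wells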)). Conditions: recombinant ERAP1, Leu-AMC fluorescence, 60 min; at 10.7 µM; stronger effect = higher value.

Structure (SMILES) | inhibition
COc1ccc(Br)c(C(=O)NCC2(N3CCCCC3)CCCCC2)c1 | inactive: -2.15%
C=C(C)C#CC(O)(C(=O)OC1CCN(C)CC1)c1ccccc1 (configuration not stated) | inactive: -1.97%
CC(C)Oc1ccc(C(=O)NCC2(N(C)C)CCCCC2)cc1 | inactive: -0.348%
O=C(OCCN1CCCC1)C(O)(c1ccccc1)c1ccccc1 | inactive: -1.68%
COc1cccc(C(=O)NCC2(N3CCCCC3)CCCCC2)c1 | inactive: 0.956%
COc1ccc(Cl)cc1C(=O)NCC1(N(C)C)CCCCC1 | inactive: -1.73%
O=C(NCC1(N2CCCCC2)CCCCC1)c1cccc(Cl)c1 | inactive: -3.92%
CN(C)C1(CNC(=O)c2ccc(Br)cc2)CCCCC1 | inactive: 0.598%
COc1cc(C(=O)NCC2(N(C)C)CCCCC2)c([N+](=O)[O-])cc1OC | inactive: -4.77%
C=CCN1CCN(CCOC(=O)C(O)(c2ccccc2)c2ccccc2)CC1 | inactive: -2.37%
O=C(NCC1(N2CCCCC2)CCCCC1)c1cc(F)c(F)cc1Cl | inactive: -2.2%
Cc1cc(C(=O)NCC2(N3CCCCC3)CCCCC2)ccc1[N+](=O)[O-] | inactive: 0.861%
O=C(NCC1(N2CCCCC2)CCCCC1)c1cccc(Br)c1 | inactive: -4.2%
COc1ccc(C(=O)NCC2(N(C)C)CCCCC2)cc1 | inactive: -0.649%
Cc1ccccc1C(=O)NCC1(N2CCCCC2)CCCCC1 | inactive: -2.55%
CN(C)c1ccc(C(=O)NCC2(N(C)C)CCCCC2)cc1 | inactive: -0.648%
CN(C)C1CCCC1OC(=O)C(O)(c1ccccc1)c1ccccc1 (configuration not stated) | inactive: -1.94%
CCN(CC)CC(C)C(C)OC(=O)C(O)(c1ccccc1)c1ccccc1 (configuration not stated) | inactive: -3.84%
COc1cc(SC)ccc1C(=O)NCC1(N(C)C)CCCCC1 | inactive: -1.46%
Cc1ccc(C(=O)NCC2(N3CCCCC3)CCCCC2)cc1 | inactive: -5.5%
O=C(NCC1(N2CCCCC2)CCCCC1)c1cc([N+](=O)[O-])ccc1Cl | inactive: 5.34%
CN1[C@@H]2CC[C@H]1CC(OC(=O)C(O)(c1ccccc1)c1ccccc1)C2 (some centres not stated) | inactive: -2.25%
